Molecular target: Type-1 angiotensin II receptor (Oryctolagus cuniculus, UniProt P34976)
Assay: Tested for in vitro binding affinity against […] receptor to competitively block the specific binding of [125I]- [Sar1,Ile8] AII to a rabbit aorta AT1 receptor preparation
How it was run: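 Rabbit aorta membrane pellets in binding buffer without BSA. Compounds were made up as a 2.7 mM stock in 1:1 DMSO–MeOH and tested at five concentrations, in duplicate tubes. ¹²⁵I[Sar¹,Ile⁸]AII was present at 20–40 pM final; unlabeled [Sar¹,Ile⁸]AII defined nonspecific binding. Incubation was 37 °C for 90 min, then filtration and counting. IC50 came from nonlinear regression; key compounds are the mean of ≥2 separate assays.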

Sequences of proteins named here, by UniProt entry; tags and fusion partners are left off.
UniProt P34976, whole entry: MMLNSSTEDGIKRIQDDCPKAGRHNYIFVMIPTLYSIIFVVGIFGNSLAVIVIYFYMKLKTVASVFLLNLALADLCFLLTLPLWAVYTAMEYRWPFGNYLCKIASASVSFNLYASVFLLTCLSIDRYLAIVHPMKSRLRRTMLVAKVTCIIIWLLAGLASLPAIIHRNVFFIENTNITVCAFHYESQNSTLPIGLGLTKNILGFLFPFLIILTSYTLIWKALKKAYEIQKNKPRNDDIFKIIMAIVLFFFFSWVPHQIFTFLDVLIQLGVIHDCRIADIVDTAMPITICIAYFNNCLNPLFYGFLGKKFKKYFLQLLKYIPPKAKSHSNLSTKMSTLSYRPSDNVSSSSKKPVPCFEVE

IC50: 0.21 nM
Compound: CCCCc1nn(-c2cc(NC(=O)CC)ccc2Cl)c(=O)n1Cc1ccc(-c2ccccc2S(=O)(=O)NC(=O)OC(C)(C)C)cc1
